Data from PubChem BioAssay (Tox21).
The list shows a part of the results, in another mix than the full data. Results filed as inconclusive are left out. Calls of active or inactive are those of the source. Calls come from the whole dose curve.

experiment: qHTS assay to identify small molecule antagonists of the sonic hedgehog signaling (Shh) pathway (AID 1259369); details: NIH/3T3 Gli1-Luc reporter, Shh antagonist, luminescence 24 h; series mostly up to 92.4 µM; activity change, negative = inhibition: at the top concentration; note: nearly all actives have a fitted effect of over 45% in size
Text: U.S. Tox21 Program National Center for Advancing Translational Sciences [NCATS] NIH Chemical Genomics Center [NCGC] U.S. Environmental Protection Agency [EPA] National Institutes of Environmental Health Sciences [NIEHS] National Toxicology Program [NTP] U.S. Food and Drug Administration [FDA] Tox21 Assay Overview: The sonic hedgehog (Shh) pathway is essential for normal embryonic development. Dysregulation of the Shh pathway can cause severe developmental defects in organs. Therefore chemicals that interfere with the pathway are potential developmental toxicants. A cell line designated 3T3Gli1-Luc (DMB/OARSA/CFSAN/FDA, Laurel, MD), a NIH/3T3 derived clone containing stably integrated Gli1-Luc reporter is used to detect chemical interference of the Shh pathway, by changes in the expression of the firefly Luc gene under the control of the Gli1 transcriptional response element. This cell line was used to screen Tox21 libraries for identifying and prioritizing the potential developmental toxicants that interfere Shh pathway. Conditioned medium-stimulated mode was used to screen for chemicals inhibiting Shh signaling.
Tox21 Assay Protocol Summary: 3T3 Gli1-Luc cells were dispensed at 2,000 per well in 5uL of culture medium into white solid bottom 1536-well plates (Greiner Bio-One, Monroe, NC) using a Multidrop Combi (Thermo Scientific, Waltham, MA) dispenser. The assay plates were incubated at 37 C and 5% CO2 for 4hr, and then 23nL of compounds dissolved in DMSO and positive control were transferred using a Pintool station (Wako, San Diego, CA). The compound transfer was followed by the addition of 1ul conditioned medium or assay buffer using two separate tips of Flying Reagent Dispenser (FRD, Aurora Discovery, San Diego, CA). The assay plates were incubated at 37C and 5% CO2 for 24hr. For luciferase read, 4uL of Amplite Luciferase reporter gene assay reagent (AAT Bioquest, Inc. Sunnyvale, CA) was added to each well of the assay plates using FRD and incubated at room temperature for 30min. The luminescence signal was measured using a ViewLux plate reader (Perkin Elmer, Shelton, CT).
% is set by controls: 0 for no effect and ±100 for the full control effect; potency is the fitted concentration of half-maximal effect.

| SMILES | activity change, negative = inhibition | Potency |
| --- | --- | --- |
| CCCCC(CC)CO[P+](=O)OCC(CC)CCCC (configuration not stated) | inactive: -2.59% | – |
| COC(=O)Cl | inactive: -1.78% | – |
| CCOP(=S)(CC)Sc1ccccc1 (configuration not stated) | inactive: 0.309% | – |
| CCCCOP(OCCCC)OCCCC | inactive: -0.363% | – |
| O=P(Cl)(Cl)c1ccccc1 | inactive: 0.437% | – |
| CCC(C)(OOC(C)(C)C)OOC(C)(C)C | inactive: 1.25% [at 19 µM] | – |
| CC(C)CCCCCCCOP(OCCCCCCCC(C)C)Oc1ccccc1 | inactive: -11.2% | – |
| CCNC(C)Cc1ccc2c(c1)OCO2 (configuration not stated) | inactive: -9.22% | – |
| CN(C(=O)Cc1ccccc1)[C@H]1CC[C@@]2(CCCO2)C[C@@H]1N1CCCC1 | inactive: -8.67% [at 42.5 µM] | – |
| O=[As]c1ccccc1 (configuration not stated) | – | active: 86.3 nM |
| O=[P+](Oc1ccccc1)Oc1ccccc1 | inactive: 0% | – |
| NC(=O)Nc1ccc([As](=O)(O)O)cc1 | – | inactive |
| O=[N+]([O-])c1ccc(S(=O)(=O)O)c([N+](=O)[O-])c1 | inactive: -13.6% | – |
| O=C(Cl)Oc1ccccc1 | inactive: -1.7% | – |
| CN(C(=O)Cc1cccc2occc12)[C@H]1CC[C@@]2(CCCO2)C[C@@H]1N1CCCC1 | inactive: -16.3% | – |
| CCOC(=O)Cl | inactive: 27.8% | – |
| O=P(Cl)(Oc1ccccc1)Oc1ccccc1 | inactive: -10.9% | – |
